# Values quoted from earlier work, collected in article PMC6151961 (Journal of Enzyme Inhibition and Medicinal Chemistry, 2018).
# Target: CA IX (Homo sapiens, UniProt Q16790)
# Settings: observed Ki of library compounds (IDs A..., B...); ref ChEMBL, BindingDB; cited from earlier work
structure (smiles),measurement,value
Nc1ccc(S(=O)(=O)N[N+](=O)[O-])cc1,Ki,8.19 µM
